Square brackets hold non-standard residues; d marks the D form. Peptide text beside a SMILES is read from it. Phe(4-SO3H) = N[C@@H](Cc1ccc(S(=O)(=O)O)cc1)C(=O)O; Phe(4-COOH) = N[C@@H](Cc1ccc(C(=O)O)cc1)C(=O)O
Target: T1, human ORL1 (Homo sapiens, UniProt P41146)
T1 construct: expressed in transfected cells; host or cells: CHO cells (G418-selected)
Assay: [3H]nociceptin binding to membranes of CHO cells transfected with human ORL1
Settings: Table 5; Ki=IC50/(1+[L]/Kd), at least two experiments in triplicate; read-out: Ki ± SEM

Amino acid sequences for entries named in this document (tags omitted). A change or cut given only in a name is not applied to a line headed by its entry.
UniProt P41146: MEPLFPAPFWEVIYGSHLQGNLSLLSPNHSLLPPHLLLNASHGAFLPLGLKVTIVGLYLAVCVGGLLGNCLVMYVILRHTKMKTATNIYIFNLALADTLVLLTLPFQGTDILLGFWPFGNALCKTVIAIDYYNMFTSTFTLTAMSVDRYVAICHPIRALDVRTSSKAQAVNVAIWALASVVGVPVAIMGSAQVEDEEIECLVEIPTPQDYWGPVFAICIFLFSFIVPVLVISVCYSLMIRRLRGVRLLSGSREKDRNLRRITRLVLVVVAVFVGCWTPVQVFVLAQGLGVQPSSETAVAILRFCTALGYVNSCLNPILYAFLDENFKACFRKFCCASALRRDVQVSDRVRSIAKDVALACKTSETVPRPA

Compound	Ki [µM]
CC(=O)N[C@@H](CCCNC(=N)N)C(=O)N[C@@H](Cc1ccc(S(=O)(=O)O)cc1)C(=O)N[C@@H](Cc1ccc(O)cc1)C(=O)N[C@@H](CCCNC(=N)N)C(=O)N[C@@H](Cc1c[nH]c2ccccc12)C(=O)N[C@@H](CCCNC(=N)N)C(N)=O [VII-29-B, Ac-Arg-Phe(4-SO3H)-Tyr-Arg-Trp-Arg-NH2] (Ac-R[Phe(4-SO3H)]YRWR-NH2)	> 10
Ac-Arg-Phe(4-COOH)-Phe(COOH)-Arg-Trp-Arg-NH2 (Ac-R[Phe(4-COOH)][Phe(COOH)]RWR-NH2) [VII-21-C]	> 10

Source: patent publication US7863416B2, “Nociceptin-based analgesics” (Synvax, Inc., priority 2001, dated 2011)
